Screening results from PubChem BioAssay.
Rows were chosen to be rich in hits. Some 16% of all compounds tested hit in one or more screens of this group.
TDP1 cell noCPT – qHTS for Inhibitors of human tyrosyl-DNA phosphodiesterase 1 (TDP1): qHTS in cells in absence of CPT | Potency, µM (highest dose often 46.2 µM), most hits filed as inhibitors | DT40 Tdp1-/- hTDP1 cells, no CPT, ATP luminescence, 48 h | AID 686978, 2013 | hit rate 15% among 420,000; further: nearly all actives have a fitted effect of over 55% in size
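DT40 Tdp1-/-;hTDP1 cells, no CPT (DMSO vehicle only), 400 cells/well; compounds pin-transferred; ≥48 hr, 37 °C; CellTiter-Glo 30 min RT dark, luminescence read.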
TDP1 cell CPT – DT40-hTDP1 cell growth loss with CPT; hit rate 12% among 420,000; chicken DT40 Tdp1-/-;hTDP1 cells + 20 nM CPT, ATP luminescence, 48 h; AID 686979; Potency, µM (top dose mostly 46.2 µM), hits mostly inhibitors; further: nearly all actives have a fitted effect of over 55% in size
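Cell growth measured by CellTiter-Glo luminescence after a minimum 48 h, 37 C compound exposure with 20 nM CPT in Tdp1-knockout DT40 cells stably expressing hTDP1, seeded 400/well; qHTS titration format.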
TDP1 inh – TDP1 (human) enzyme inhibition. Q9NUW8. recombinant TDP1, AlphaScreen DNA substrate cleavage. Potency, µM (doses to about 130 µM), most hits filed as inhibitors. hit rate 0.28% among 350,000. AID 485290; further: nearly all actives have a fitted effect of over 40% in size
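E. coli-derived human Tdp1, 1 nM final. Cpd preinc 15 min RT; substrate 15 nM final, 5 min RT; AS bead mix 10 ug/ml final, 10 min RT. Signal loss = tyrosine-FITC cleavage. No-enzyme wells = max signal.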
miR-21 FLuc – miR-21 reporter, rising signal | 340,000 tested, under 10 active | AID 2288 | HeLa miR-21 FLuc reporter, luciferase, 48 h | Potency, µM (titrated, usually from 38.3 µM); active = well fitted rising curve with a large enough effect; inconclusive = small, poorly fitted or top-dose-only effect; inactive = no such curve, though single readings can be large or run the other way;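 further: miR-21 action dims this reporter so a rising signal means less miR-21 action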
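Luminescence from a firefly luciferase reporter carrying a miR-21 binding site downstream, stably expressed under a CMV promoter in HeLa cells that make miR-21 endogenously, reports miRNA modulation after 48 h compound exposure up to approximately 40uM final.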
uPA generation – cell surface uPA generation inhibition; cell surface uPA generation assay, qHTS; Potency, µM (top dose mostly 38.3 µM), most hits filed as inhibitors; hit rate 0.31% among 330,000; active means well fitted inhibition curve with a large enough effect; inconclusive means small, poorly fitted or top-dose-only effect; inactive means no such curve, though single readings can be large or run the other way; tested in mouse RAW 264.7 cells; further: nearly all actives have a fitted effect of over 55% in size
Numbers stand for hits; [ ] = dose if it differs, or a comment. Unless noted, the call rests on the fitted dose curve; in most records, active means well fitted curve in the direction sought with a large enough effect; inconclusive means small, poorly fitted or top-dose-only effect, or another doubt; inactive means no such curve, though single readings can be large; an effect the other way counts as inactive or inconclusive.

For O=C(Nc1ccc(Cl)c(S(=O)(=O)N2CCOCC2)c1)C1CCC1 the results were TDP1 cell noCPT inactive, TDP1 cell CPT inactive, TDP1 inh inactive and uPA generation inactive.
Screening O=C(CN1CCN(S(=O)(=O)N2CCOCC2)CC1)Nc1ccc(Cl)c(Cl)c1 returned TDP1 cell noCPT 16.4µM, TDP1 cell CPT inconclusive, TDP1 inh inactive, miR-21 FLuc inactive and uPA generation inactive.
`O=C(CC1CCCC1)Nc1cc(S(=O)(=O)N2CCOCC2)ccc1O` gave TDP1 cell noCPT inconclusive, TDP1 cell CPT 8.2µM, TDP1 inh inactive and uPA generation inactive.
For COC(=O)c1cc(NC(=O)CC(=O)c2cccc(N)c2)cc(C(=O)OC)c1 the results were TDP1 cell noCPT inactive and TDP1 cell CPT inactive.
Screening CCCn1cc(S(=O)(=O)c2ccccc2)c(=O)c2cc(OCC)ccc21 returned TDP1 cell noCPT inactive, TDP1 cell CPT inactive, TDP1 inh inactive, miR-21 FLuc inactive and uPA generation inactive.
`CC1=C(C(N)=O)C(c2cccc(O)c2)n2ncnc2N1` (stereo not given) gave TDP1 cell noCPT inactive, TDP1 cell CPT inactive, TDP1 inh inactive and miR-21 FLuc inactive.
`CC1=C(C(=O)OC(C)C)C(c2cccc(F)c2)n2ncnc2N1` (stereo not given) gave TDP1 cell noCPT 16.4µM, TDP1 cell CPT 14.6µM, TDP1 inh inactive, miR-21 FLuc inactive and uPA generation inactive.
O=C(Nc1ccc(Cl)c(-c2nc3cc(Cl)ccc3o2)c1)c1cc2ccccc2o1 was read as TDP1 cell noCPT inconclusive, TDP1 cell CPT inconclusive, TDP1 inh inactive[12.3 µM] and miR-21 FLuc inactive.
Screening Cc1cc2nc(-c3cc(NC(=O)c4cc5ccccc5o4)ccc3Cl)oc2cc1C returned TDP1 cell noCPT 16.4µM, TDP1 cell CPT inconclusive, TDP1 inh inactive[12.3 µM] and miR-21 FLuc inactive.
Screening COc1cc2ccccc2cc1C(=O)Nc1ccc(Cl)c(-c2nc3ccccc3o2)c1 returned TDP1 cell noCPT 23.1µM, TDP1 cell CPT inconclusive, TDP1 inh inactive[12.3 µM] and miR-21 FLuc inactive.
Screening Cc1cc(C)c2nc(N3CCCC(C(=O)NCCN4CCOCC4)C3)sc2c1 (stereo not given) returned TDP1 cell noCPT inconclusive, TDP1 cell CPT inconclusive, TDP1 inh inactive, miR-21 FLuc inactive and uPA generation inactive.
Screening CCO[C@@H]1OC(C(N)=O)=C[C@H](c2coc3ccccc3c2=O)[C@H]1CCCO returned TDP1 cell noCPT inactive, TDP1 cell CPT inactive, miR-21 FLuc inactive and uPA generation inactive.
Cc1ccccc1-c1nc(CS(=O)CC(=O)NCCc2ccc(Cl)cc2)c(C)o1 (stereo not given) was read as TDP1 cell noCPT inconclusive, TDP1 cell CPT 16.4µM, TDP1 inh inactive, miR-21 FLuc inconclusive and uPA generation inactive.
Cc1ccc(CNC(=O)CS(=O)Cc2nc(-c3cccs3)oc2C)cc1 (stereo not given) was read as TDP1 cell noCPT inconclusive, TDP1 cell CPT 23.1µM, TDP1 inh inactive, miR-21 FLuc inactive and uPA generation inconclusive.
`CCc1ccc(-c2nc(CS(=O)CC(=O)NCCc3ccc(C)cc3)c(C)o2)cc1` (stereo not given) gave TDP1 cell noCPT inconclusive, TDP1 cell CPT 23.1µM, TDP1 inh inactive and miR-21 FLuc inactive.
Screening Cc1ccc(NC(=O)CS(=O)Cc2nc(-c3ccc(C)cc3)oc2C)cc1 (stereo not given) returned TDP1 cell noCPT 20.6µM, TDP1 cell CPT inconclusive, TDP1 inh inactive, miR-21 FLuc inactive and uPA generation inactive.
Screening CCC(C)NC(=O)c1cn(CC)c2ccc(S(=O)(=O)N3CCc4ccccc4C3)cc2c1=O (stereo not given) returned TDP1 cell noCPT inconclusive, TDP1 cell CPT 20.6µM, TDP1 inh inactive and miR-21 FLuc inactive.
For CCn1cc(C(=O)NC(C)c2ccccc2)c(=O)c2cc(S(=O)(=O)N3CCc4ccccc4C3)ccc21 (stereo not given) the results were TDP1 cell noCPT 16.4µM, TDP1 cell CPT inconclusive, TDP1 inh inactive and miR-21 FLuc inactive.
Screening CCn1cc(C(=O)NCc2ccccc2)c(=O)c2cc(S(=O)(=O)N3CCc4ccccc4C3)ccc21 returned TDP1 cell noCPT inconclusive, TDP1 cell CPT inconclusive, TDP1 inh inactive and miR-21 FLuc inactive.
For Cc1cccc(COCC(Cc2ccccc2)N2CCN(C(=O)c3cccc(C)c3)CCC2=O)c1 (stereo not given) the results were TDP1 cell noCPT inconclusive, TDP1 cell CPT inconclusive, TDP1 inh inactive, miR-21 FLuc inactive and uPA generation inactive.
`O=C(c1ccc(Cl)c(Cl)c1)N1CCC(=O)N(C(COCc2cccc(C(F)(F)F)c2)Cc2ccccc2)CC1` (stereo not given) gave TDP1 cell noCPT inconclusive, TDP1 cell CPT inconclusive, TDP1 inh inactive, miR-21 FLuc inactive and uPA generation inactive.
O=C(c1ccc(Cl)c(Cl)c1)N1CCC(=O)N(C(COCc2ccc(Cl)cc2)Cc2ccccc2)CC1 (stereo not given) was read as TDP1 cell noCPT 16.4µM, TDP1 cell CPT inconclusive, TDP1 inh inactive, miR-21 FLuc inactive and uPA generation inconclusive.
`O=C(c1cccc(Cl)c1)N1CCC(=O)N([C@H](COCc2cccc(Cl)c2)Cc2ccccc2)CC1` gave TDP1 cell noCPT 23.1µM, TDP1 cell CPT inconclusive and TDP1 inh inactive.
Screening Cc1cccc(COCC(Cc2ccccc2)N2CCN(C(=O)c3ccc(Cl)c(Cl)c3)CCC2=O)c1 (stereo not given) returned TDP1 cell noCPT inconclusive, TDP1 cell CPT 20.6µM, TDP1 inh inactive, miR-21 FLuc inactive and uPA generation inconclusive.
CCC1(C2CCN(Cc3ccccn3)CC2)NC(=O)N(CC2COc3ccccc3O2)C1=O (stereo not given) was read as TDP1 cell noCPT inactive and TDP1 cell CPT inactive[9.04 µM].
For CC1CC(C)CN(C(=O)C(C)N2CCN(S(=O)(=O)c3ccccc3F)CC2)C1 (stereo not given) the results were TDP1 cell noCPT inactive, TDP1 cell CPT inconclusive, TDP1 inh inactive and uPA generation inactive.
For COc1ccc2oc(C(=O)OCC(=O)NC3CC3)c(C)c2c1 the results were TDP1 cell noCPT inactive, TDP1 cell CPT inactive, TDP1 inh inactive, miR-21 FLuc inactive and uPA generation inactive.
Screening Cc1ccc(C2=CC(c3ccc(N(C)C)cc3)n3nnnc3N2)cc1 (stereo not given) returned TDP1 cell noCPT 20.6µM, TDP1 cell CPT 18.4µM, TDP1 inh inactive, miR-21 FLuc inactive and uPA generation inconclusive.
For COc1ccc(C2=CC(c3ccc(F)cc3)n3nnnc3N2)cc1 (stereo not given) the results were TDP1 cell noCPT 18.4µM, TDP1 cell CPT inconclusive, TDP1 inh inactive, miR-21 FLuc inactive and uPA generation inactive.
